Experiment [1] has as its target T1, isolated nNOS from rat cerebella (Rattus norvegicus, UniProt P29476). Briefly: Arginine assay according to the invention (HTS NOS assay, cation exchanger filter MTP).
Experiment [2] has as its target T1, isolated nNOS from rat cerebella. Briefly: Citrulline assay according to Bredt and Snyder (1990), separation by column chromatography. It counts as biochemical. From the text: On completion of the reaction the enzyme mixtures are passed over separate cation exchange columns. Elution of the [^3H]L-citrulline and determination of the eluates then takes place on a β-counter. The disadvantage of this method is that column chromatography has to take place separately for each enzyme mixture (e.g. 96 chromatography columns are needed per 96 well microtiter plate).
The precipitate is discarded.
The separation was effected by means of column chromatography.

Each structure is given as a SMILES string.

One may read the IC50 as the concentration needed to halve the response being measured. Lower therefore signals higher potency. Take `CC(=N)NCc1cccc(CN)c1` [1400 W, N-[3-(aminomethyl)benzyl]acetamidine]: the IC50 in experiment [1] stood at 6.98 µM; in experiment [2] it was 16.7 µM.

Values taken from US7045307B2, “Method for measuring no synthase activity” (Gruenenthal GmbH, priority 2000, dated 2006).
